This is a selection; strong and weak results do not stand in their true shares. Calls of active or inactive are those of the source.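 The calls were made as follows: active = inhibition above the mean of the plate negative controls plus 5 SD (cut at about 13% in these data); inactive = the rest.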

The assay in a line: blockers of IgG-bead uptake by macrophages – imaging, J774A.1 cells, IgG beads, primary screen (AID 1029).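 Also: phagocytic index as fraction of beads internalized from green versus red external bead signal; plate controls were DMSO negative control for no effect and cytochalasin-D positive control for full effect.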 To be noted: J774A.1 macrophage IgG-bead phagocytosis, at 5 µM, stronger effect = higher value.
One may read the inhibition as the change of the read-out against control, counted positive when it falls. With `COc1ccc(NC2CCN(CCc3ccccc3)CC2)c(OC)c1`, the inhibition was inactive: -4.3%.

For `O=C(NCC1(N2CCOCC2)CCCCC1)c1cc2ccccc2o1`, the inhibition is inactive: 2.1%.

With `O=C(OC1CN2CCC1CC2)C1c2ccccc2Oc2ccccc21` (stereo not given), the inhibition is inactive: -0.3%.

Regarding `O=C(NCC1(N2CCOCC2)CCCCC1)c1cc(=O)[nH]c2ccccc12`, the inhibition was inactive: 0.9%.

As for `CN1CCN(CCOC(=O)C(O)(c2ccccc2)c2ccccc2)CC1`, the inhibition was inactive: -4.75%.

Regarding `c1ccc(CN2CCC(Nc3ccccc3)CC2)cc1`, the inhibition was inactive: -0.2%.

Turning to `N/C(=N\O)c1c(N)no[n+]1[O-]`, the inhibition is inactive: 0.7%.

With `O=C(OC1CN2CCC1CC2)C1c2ccccc2C=Cc2ccccc21` (stereo not given), the inhibition is inactive: -1.64%.

Take `CCOc1ncccc1C(=O)NCC1(N2CCOCC2)CCCCC1`: the inhibition was inactive: 0.7%.

For the compound `CCN1CCC(Nc2cccc(F)c2)CC1`, the inhibition was inactive: -3.74%.
